Experimental data taken from patent publication US11421204B2, “Method of removing pluripotent cells from culture” (REPROCELL INCORPORATED, priority 2015, dated 2022).

Assays:
[1] = tested on: iPS cell (cell line 201B7); test: Comparison of effects by wavelength of photoirradiation of ALA-PDT for iPS cell; assay type: cell-based, human; conditions: ALA 100 or 1000 micro-M for 4 hours, red LED (635 nm) or blue LED (405 nm) 10 minutes, observed 24 hours afterward
Protocol: Then, the effect by the difference of the wavelength in the photoirradiation of ALA-PDT for a human iPS cell was compared.
Then, the cultured iPS cell was irradiated with red LED (wavelength of 635 nm) or blue LED (wavelength of 405 nm) for 10 minutes, and the cell form was observed 24 hours afterward.
Culture conditions were: used cell line: 201B7 and used culture-medium: Primate ES Cell Medium.

[2] = tested on: neuron performed differentiation induction from the human iPS cell (ReproNeuro); test: Evaluation of effects of ALA-PDT for neuron originated from iPS cell; assay type: cell-based; conditions: ALA 250, 500 micro-M for 4 hours, red LED (635 nm) 10 minutes; shortly after (not shown)
Protocol: Then, the effects by ALA-PDT for the neuron performed differentiation induction from the human iPS cell (neuron originated from iPS cell) were evaluated. The used neuron was ReproNeuro. […] After that, the cell form was observed. Then, the cultured neuron was irradiated with red LED (wavelength of 635 nm) for 10 minutes, and the cell form was observed after 12-hour progresses (overnight). Then, it was exchanged the culture medium, which ALA was not included, and the cell form was observed after cultivating with exchanging the culture media for seven days.

[3] = tested on: cardiac muscle cell performed differentiation induction from the human iPS cell; test: Evaluation of effect of ALA-PDT for cardiac muscle cell originated from iPS cell
[4] = tested on: iPS cell (cell line 201B7); test: Evaluation of effects of ALA-PDT for iPS cell (cell form, ALP expression); assay type: cell-based, human; conditions: ALA 1000 micro-M and/or SFC 500 micro-M for 48 hours, blue LED (405 nm) 10 minutes, observed 24 hours afterward

recovery and beating of cardiac muscle cell after ALA-PDT ([3]; about 250 micro-M ALA, several days after ALA-PDT, preliminary experiment (not shown)): recovered as like the neuron and beat
SMILES: NCC(=O)CCC(=O)O [ALA, delta-aminolevulinic acid]
cell form of iPS cell colony after ALA-PDT, red vs blue LED [1]: the colony collapsed
neural spine after addition of ALA and LED irradiation [2]: the neural spine became short, temporarily
beating and colony shape of cardiac muscle cell after ALA-PDT ([3]; ALA 500 micro-M for 4 hours, red LED 10 minutes, observed after 12 hours (overnight)): the naturally-beating cardiac muscle stopped, and the cardiac muscle colony also lost its shape
cell form of iPS cell colonies after ALA-PDT [4]: the colonies of the iPS cells collapsed, and a part of them was exfoliated
